# Results: article PMC8001558 (Viruses, 2021)
# Molecular target: GII.10 Vietnam 026 VLPs (Norwalk virus (human norovirus GII.10), UniProt Q5F4T5)
# Assay: biochemical
# Settings: STD NMR at 277 K
smiles,measurement,setting,value
"C[C@@H]1O[C@@H](O[C@@H]2[C@@H](O[C@H]3O[C@H](CO)[C@H](O)[C@H](O)[C@H]3O)[C@@H](O)[C@@H](CO)O[C@@H]2N=[N+]=[N-])[C@@H](O)[C@H](O)[C@@H]1O [B-Tri 3, blood group B trisaccharide (azido group at the anomeric position)]",Kd,"PBS pH* 7.20, absence of GCDCA",7.9 ± 0.7 mM
same,Kd,"PBS pH* 7.20, with saturating amounts of GCDCA (1 mM)",9 ± 1 mM
